{"source": "patent US8945629B2", "about": "“Nanoparticles for cytoplasmic drug delivery to cancer cells” (University of Wyoming, priority 2004, dated 2015)", "experiment": "Transition pH (pHc) / pH-dependent solubility of polymers", "data": [{"substance": "Poly[2-(N,N-dimethylamino)ethyl methacrylate] [PDMA]", "values": [{"measurement": "solubility as a function of pH", "result": "soluble at all pH ranges"}]}]}
